Measurements as given in patent publication US20070111328A1, “Scintillation proximity assay for the identification of P-glycoprotein modulators” (priority 2005, published 2007).

Protein sequences, listed by entry. Tags and fused reporters are not part of them.
UniProt P08183, whole entry: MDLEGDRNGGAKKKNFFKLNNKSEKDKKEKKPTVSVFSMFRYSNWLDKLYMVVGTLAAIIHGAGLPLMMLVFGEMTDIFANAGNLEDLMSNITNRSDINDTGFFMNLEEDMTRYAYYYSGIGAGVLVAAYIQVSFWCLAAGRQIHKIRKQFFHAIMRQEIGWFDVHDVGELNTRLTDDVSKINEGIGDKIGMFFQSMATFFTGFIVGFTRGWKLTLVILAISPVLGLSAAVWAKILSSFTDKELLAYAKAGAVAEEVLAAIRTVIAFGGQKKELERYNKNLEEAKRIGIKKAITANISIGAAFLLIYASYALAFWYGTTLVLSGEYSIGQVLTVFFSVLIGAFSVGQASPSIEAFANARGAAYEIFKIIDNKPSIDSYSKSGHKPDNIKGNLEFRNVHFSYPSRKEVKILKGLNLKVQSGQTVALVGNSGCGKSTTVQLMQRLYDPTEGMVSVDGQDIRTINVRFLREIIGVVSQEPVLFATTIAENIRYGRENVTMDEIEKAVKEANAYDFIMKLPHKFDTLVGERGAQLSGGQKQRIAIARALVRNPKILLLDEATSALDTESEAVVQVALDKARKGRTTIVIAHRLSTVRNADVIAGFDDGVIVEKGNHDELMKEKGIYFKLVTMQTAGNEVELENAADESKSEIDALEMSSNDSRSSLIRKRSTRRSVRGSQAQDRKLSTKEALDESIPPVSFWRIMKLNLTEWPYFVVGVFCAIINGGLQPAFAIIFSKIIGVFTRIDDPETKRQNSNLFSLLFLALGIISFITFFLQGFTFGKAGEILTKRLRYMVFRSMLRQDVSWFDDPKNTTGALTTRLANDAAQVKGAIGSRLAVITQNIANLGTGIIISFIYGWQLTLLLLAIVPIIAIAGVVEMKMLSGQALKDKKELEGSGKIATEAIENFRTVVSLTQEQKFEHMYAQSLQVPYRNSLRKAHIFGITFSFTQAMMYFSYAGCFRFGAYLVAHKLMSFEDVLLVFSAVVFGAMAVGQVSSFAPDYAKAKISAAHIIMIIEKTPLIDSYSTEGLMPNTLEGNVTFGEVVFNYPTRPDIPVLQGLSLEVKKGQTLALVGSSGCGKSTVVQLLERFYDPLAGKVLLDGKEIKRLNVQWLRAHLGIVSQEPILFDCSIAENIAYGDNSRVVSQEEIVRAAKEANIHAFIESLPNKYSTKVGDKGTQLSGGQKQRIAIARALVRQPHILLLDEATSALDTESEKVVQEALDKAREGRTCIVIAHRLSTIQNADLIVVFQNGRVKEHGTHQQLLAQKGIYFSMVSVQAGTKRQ

Target: P-glycoprotein (P-gp) (Homo sapiens, UniProt P08183)
Assay: Scintillation proximity assay (SPA): competition with [3H]vinblastine binding to P-gp in KB-V1 cell membranes
Settings: test compound 10 μM final concentration; FIG. 8; mean of triplicates

Compound	effect of test compound on P-gp specific binding signal
C[C@H]1O[C@@H](O[C@H]2[C@@H](O)C[C@H](O[C@H]3[C@@H](O)C[C@H](O[C@H]4CC[C@@]5(C)[C@H](CC[C@@H]6[C@@H]5C[C@@H](O)[C@]5(C)[C@@H](C7=CC(=O)OC7)CC[C@]65O)C4)O[C@@H]3C)O[C@@H]2C)C[C@H](O)[C@@H]1O [digoxin]	do not appear to be able to alter the P-gp signal
LY335979	strongly inhibited
